Here are results for 24 compounds from PubChem BioAssay AID2650 (Broad Institute, 2010).

Protein sequences, listed by entry. Tags and fused reporters are not part of them.
UniProt P49840, whole entry: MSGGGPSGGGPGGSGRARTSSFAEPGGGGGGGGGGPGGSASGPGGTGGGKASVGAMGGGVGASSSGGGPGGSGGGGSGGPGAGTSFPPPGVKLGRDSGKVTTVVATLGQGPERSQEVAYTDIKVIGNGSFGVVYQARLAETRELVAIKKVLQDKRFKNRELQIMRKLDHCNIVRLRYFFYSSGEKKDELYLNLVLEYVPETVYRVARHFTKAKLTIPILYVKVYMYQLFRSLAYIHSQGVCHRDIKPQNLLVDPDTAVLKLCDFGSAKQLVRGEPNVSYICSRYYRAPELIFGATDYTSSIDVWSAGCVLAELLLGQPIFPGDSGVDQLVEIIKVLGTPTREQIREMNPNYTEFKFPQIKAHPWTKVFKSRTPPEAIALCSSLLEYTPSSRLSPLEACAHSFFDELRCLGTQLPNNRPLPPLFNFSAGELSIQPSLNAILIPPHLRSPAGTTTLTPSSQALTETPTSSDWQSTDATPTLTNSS

The list shows a part of the results, in another mix than the full data. Some results for these compounds are left out of this collection, so the calls shown say nothing about other tests. Active and inactive are the calls of the source.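 How the source made its calls: active means more than half of replicates show inhibition above 20%; inconclusive means some but at most half of replicates above 20% inhibition; inactive means no replicate shows inhibition above 20%.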

For the experiment, the target named is Glycogen synthase kinase-3 alpha (Homo sapiens) (UniProt P49840). Nature of the experiment: blockers of GSK3A enzyme activity – biochemical, luminescence, cell-free homogeneous, HTS, primary screen (AID 2650).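 Further: GST-tagged GSK-3 alpha with peptide substrate and 25 µM ATP; 0% = DMSO neutral wells and 100% = GW8510 positive control wells.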 To be noted: GSK-3 alpha kinase, ADP-Glo luminescence, 60 min; at 10 µM; stronger effect = higher value.
Consider `CN1[C@@H]2CC[C@H]1CC(OC(=O)C(O)(c1ccccc1)c1ccccc1)C2` (some centres undefined), for which the inhibition was inactive: 0.546%.

For `O=C(NCC1(N2CCCCC2)CCCCC1)c1cc([N+](=O)[O-])ccc1Cl`, the inhibition is inactive: 1.89%.

On to `Cc1ccc(C(=O)NCC2(N3CCCCC3)CCCCC2)cc1`, for which the inhibition is inactive: -0.737%.

Regarding `CCN(CC)CC(C)C(C)OC(=O)C(O)(c1ccccc1)c1ccccc1` (centres undefined), the inhibition is inactive: -2.41%.

For the compound `COc1cc(SC)ccc1C(=O)NCC1(N(C)C)CCCCC1`, the inhibition is inactive: -2.31%.

On to `CC(C)N1C(=O)CC2(CCN(CCOC(=O)C(O)(c3ccccc3)c3ccccc3)CC2)C1=O`, for which the inhibition is inactive: -1.21%.

With `Cc1ccccc1C(=O)NCC1(N2CCCCC2)CCCCC1`, the inhibition is inactive: 1.46%.

Turning to `CN(C)c1ccc(C(=O)NCC2(N(C)C)CCCCC2)cc1`, the inhibition is inactive: -0.56%.

Consider `CN(C)C1CCCC1OC(=O)C(O)(c1ccccc1)c1ccccc1` (centres undefined), for which the inhibition is inactive: 0.169%.

Turning to `COc1ccc(C(=O)NCC2(N(C)C)CCCCC2)cc1`, the inhibition was inactive: -1.9%.

For the compound `CCN1CCCC(OC(=O)C2(O)c3ccccc3C=Cc3ccccc32)C1` (centres undefined), the inhibition is inactive: 1.65%.

For `Cc1cc(C(=O)NCC2(N3CCCCC3)CCCCC2)ccc1[N+](=O)[O-]`, the inhibition is inactive: 4.56%.

With `O=C(NCC1(N2CCCCC2)CCCCC1)c1cccc(Br)c1`, the inhibition is inactive: -1.26%.

As to `C=CCN1CCN(CCOC(=O)C(O)(c2ccccc2)c2ccccc2)CC1`, the inhibition is inactive: -3.14%.

Take `O=C(NCC1(N2CCCCC2)CCCCC1)c1cc(F)c(F)cc1Cl`: the inhibition was inactive: -2.48%.

Consider `COc1cc(C(=O)NCC2(N(C)C)CCCCC2)c([N+](=O)[O-])cc1OC`, for which the inhibition was inactive: 4.27%.

With `CN(C)C1(CNC(=O)c2ccc(Br)cc2)CCCCC1`, the inhibition is inactive: -3.03%.

Consider `O=C(NCC1(N2CCCCC2)CCCCC1)c1cccc(Cl)c1`, for which the inhibition was inactive: 0.112%.

As to `COc1cccc(C(=O)NCC2(N3CCCCC3)CCCCC2)c1`, the inhibition is inactive: -0.585%.

As to `COc1ccc(Cl)cc1C(=O)NCC1(N(C)C)CCCCC1`, the inhibition was inactive: 1.33%.

For the compound `O=C(OC1CN2CCC1CC2)C(CO)(c1ccccc1)c1ccccc1` (centres undefined), the inhibition was inactive: -0.397%.

`CC(C)Oc1ccc(C(=O)NCC2(N(C)C)CCCCC2)cc1`: the inhibition is inactive: 0.303%.

Regarding `CN(C)c1cccc(C(=O)NCC2(N(C)C)CCCCC2)c1`, the inhibition is inactive: -6.09%.

On to `COc1ccc(Br)c(C(=O)NCC2(N3CCCCC3)CCCCC2)c1`, for which the inhibition was inactive: -2.24%.
